Read-outs that look alike come from different tables or passages of the source.
Columns and labels:
PDE1C = PDE1C (Homo sapiens (Human), UniProt Q14123); assay: biochemical
From the text: (§1) Table 1 lists the IC50 value for inhibition of PDE1 by the compounds of the invention. […] PDE1 assays are described in the Experimental Section.

The chains behind the UniProt entries cited, without tags or fusion partners. Where a name states a change or a piece, a line headed by the entry shows the natural chain unless it says otherwise.
UniProt Q14123, whole entry: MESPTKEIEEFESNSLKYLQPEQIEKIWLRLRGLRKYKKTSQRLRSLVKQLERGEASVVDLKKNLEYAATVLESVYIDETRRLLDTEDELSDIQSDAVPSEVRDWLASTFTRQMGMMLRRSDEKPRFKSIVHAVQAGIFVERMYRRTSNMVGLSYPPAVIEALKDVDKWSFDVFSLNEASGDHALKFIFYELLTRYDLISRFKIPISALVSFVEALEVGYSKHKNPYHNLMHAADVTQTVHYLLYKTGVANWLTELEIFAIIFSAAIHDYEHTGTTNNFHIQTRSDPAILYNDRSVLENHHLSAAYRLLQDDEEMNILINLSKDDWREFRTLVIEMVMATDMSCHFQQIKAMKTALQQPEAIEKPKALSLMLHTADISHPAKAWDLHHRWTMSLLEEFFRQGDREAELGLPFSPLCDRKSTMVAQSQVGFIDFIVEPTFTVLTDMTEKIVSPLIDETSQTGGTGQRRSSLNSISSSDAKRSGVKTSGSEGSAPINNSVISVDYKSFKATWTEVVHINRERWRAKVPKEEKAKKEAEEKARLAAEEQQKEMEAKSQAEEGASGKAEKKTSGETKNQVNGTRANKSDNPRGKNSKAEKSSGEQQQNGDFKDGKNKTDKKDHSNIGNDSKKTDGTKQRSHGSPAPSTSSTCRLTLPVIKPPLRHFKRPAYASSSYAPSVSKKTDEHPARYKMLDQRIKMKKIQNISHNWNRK
UniProt Q01064: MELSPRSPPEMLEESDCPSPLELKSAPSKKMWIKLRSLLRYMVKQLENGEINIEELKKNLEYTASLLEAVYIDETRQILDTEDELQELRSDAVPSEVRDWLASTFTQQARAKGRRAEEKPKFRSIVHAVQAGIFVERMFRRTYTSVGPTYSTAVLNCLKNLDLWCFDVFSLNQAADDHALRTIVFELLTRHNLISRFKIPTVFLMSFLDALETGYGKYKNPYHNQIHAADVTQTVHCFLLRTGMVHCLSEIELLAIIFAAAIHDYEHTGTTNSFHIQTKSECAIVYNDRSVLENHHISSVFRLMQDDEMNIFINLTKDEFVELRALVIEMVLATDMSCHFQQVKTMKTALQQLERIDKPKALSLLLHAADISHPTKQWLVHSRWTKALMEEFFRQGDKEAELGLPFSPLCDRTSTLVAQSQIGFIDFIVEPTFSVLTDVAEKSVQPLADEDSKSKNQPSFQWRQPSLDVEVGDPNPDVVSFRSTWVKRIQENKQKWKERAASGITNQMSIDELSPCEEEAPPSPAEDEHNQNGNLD
UniProt P54750: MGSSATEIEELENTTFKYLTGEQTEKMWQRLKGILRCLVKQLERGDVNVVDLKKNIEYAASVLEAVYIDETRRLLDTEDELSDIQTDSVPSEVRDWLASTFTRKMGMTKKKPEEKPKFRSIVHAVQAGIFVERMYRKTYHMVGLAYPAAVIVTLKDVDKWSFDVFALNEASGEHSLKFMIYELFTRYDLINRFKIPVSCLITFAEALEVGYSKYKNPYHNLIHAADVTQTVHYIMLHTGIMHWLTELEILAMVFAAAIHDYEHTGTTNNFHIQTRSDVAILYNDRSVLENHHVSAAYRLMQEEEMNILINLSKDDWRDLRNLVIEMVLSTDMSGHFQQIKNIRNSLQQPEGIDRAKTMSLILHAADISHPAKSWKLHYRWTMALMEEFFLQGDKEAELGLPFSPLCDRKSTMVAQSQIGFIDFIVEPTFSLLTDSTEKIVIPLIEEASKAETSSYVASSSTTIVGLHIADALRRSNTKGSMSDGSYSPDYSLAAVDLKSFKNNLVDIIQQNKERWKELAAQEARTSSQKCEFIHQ

PDE1B = PDE1B (Homo sapiens (Human), UniProt Q01064); assay: PDE1 inhibition assay (PDE1B); type: biochemical; conditions: 15 nM tritium labelled cAMP, 1 hr at room temperature, SPA beads
From the text: as §1

PDE1A = PDE1A (Homo sapiens (Human), UniProt P54750); assay: biochemical
From the text: as §1

[1] = 15 nM tritium labelled cAMP, 1 hr at room temperature, SPA beads

CCOc1ncccc1-c1cc(NCc2cnc(C)o2)c2c(n1)c(C)nn2C(C)CC (single isomer, unassigned) [Example 133, 5-(2-ethoxy-3-pyridyl)-3-methyl-N-[(2-methyloxazol-5-yl)methyl]-1-[1-methylpropyl]pyrazolo[4,3-b]pyridin-7-amine]
IC50 (PDE1C): 23 nM

CCOc1ncccc1-c1cc(NCc2coc(C)n2)c2c(n1)c(C)nn2C(C)CC (single isomer, unassigned) [Example 129, 5-(2-ethoxy-3-pyridyl)-3-methyl-N-[(2-methyloxazol-4-yl)methyl]-1-[1-methylpropyl]pyrazolo[4,3-b]pyridin-7-amine]
IC50 (PDE1B; PDE1B, IC50 (nM)): 1.2 nM

CCOc1ncccc1-c1cc(NCc2ncn(C)n2)c2c(n1)c(C)nn2C(C)CC (single isomer, unassigned) [Example 121, 5-(2-ethoxy-3-pyridyl)-3-methyl-1-[1-methylpropyl]-N-[(1-methyl-1,2,4-triazol-3-yl)methyl]pyrazolo[4,3-b]pyridin-7-amine]
IC50 (PDE1A): 4 nM | IC50 (PDE1C): 10 nM

CCOc1ncccc1-c1cc(NCc2ncn(C)n2)c2c(n1)c(C)nn2C(C)CC (single isomer, unassigned) [Example 122, 5-(2-ethoxy-3-pyridyl)-3-methyl-1-[1-methylpropyl]-N-[(1-methyl-1,2,4-triazol-3-yl)methyl]pyrazolo[4,3-b]pyridin-7-amine]
IC50 (PDE1A): 2.2 nM | IC50 (PDE1C): 3.5 nM

Cc1nn(C(C)C)c2c(NCc3cnn(C)c3)cc(-c3cccnc3N(C)C)nc12 [Example 201, 5-[2-(dimethylamino)-3-pyridyl]-1-isopropyl-3-methyl-N-[(1-methylpyrazol-4-yl)methyl]pyrazolo[4,3-b]pyridin-7-amine]
IC50 (PDE1A; [1]): 2100 nM | IC50 (PDE1C; [1]): 2100 nM

CCOc1ncccc1-c1cc(NCc2cnn(C)c2)c2c(cnn2C(C)CC)n1 (single isomer, unassigned) [Example 70, 5-(2-ethoxy-3-pyridyl)-1-[1-methylpropyl]-N-[(1-methylpyrazol-4-yl)methyl]pyrazolo[4,3-b]pyridin-7-amine]
IC50 (PDE1C): 360 nM

CCOc1ncccc1-c1cc(NCc2cnn(C)c2)c2c(cnn2C(C)CC)n1 (single isomer, unassigned) [Example 69, 5-(2-ethoxy-3-pyridyl)-1-[1-methylpropyl]-N-[(1-methylpyrazol-4-yl)methyl]pyrazolo[4,3-b]pyridin-7-amine]
IC50 (PDE1C): 40 nM

CCC1COC(=O)N1c1cc(NCc2cnn(C)c2)c2c(n1)c(C)nn2C(C)C (stereo not drawn) [Example 156, 4-ethyl-3-[1-isopropyl-3-methyl-7-[(1-methylpyrazol-4-yl)methylamino]pyrazolo[4,3-b]pyridin-5-yl]oxazolidin-2-one]
IC50 (PDE1B; read-out: PDE1B, IC50): 31 nM | IC50 (PDE1A; [1]): 31 nM

CCOc1ncccc1-c1cc(NCc2nnn(C)n2)c2c(n1)c(C)nn2C(C)CC (single isomer, unassigned) [Example 127, 5-(2-ethoxy-3-pyridyl)-3-methyl-1-[1-methylpropyl]-N-[(2-methyltetrazol-5-yl)methyl]pyrazolo[4,3-b]pyridin-7-amine]
IC50 (PDE1C): 5.1 nM

CCOc1ncccc1-c1cc(NCc2ccnc(OC)c2)c2c(n1)c(C)nn2C(C)CC (single isomer, unassigned) [Example 126, 5-(2-ethoxy-3-pyridyl)-N-[(2-methoxy-4-pyridyl)methyl]-3-methyl-1-[1-methylpropyl]pyrazolo[4,3-b]pyridin-7-amine]
IC50 (PDE1B; PDE1B, IC50 (nM)): 0.51 nM

CCOc1ncccc1-c1cc(NCc2noc(C)n2)c2c(n1)c(C)nn2C(C)CC (single isomer, unassigned) [Example 128, 5-(2-ethoxy-3-pyridyl)-3-methyl-N-[(5-methyl-1,2,4-oxadiazol-3-yl)methyl]-1-[1-methylpropyl]pyrazolo[4,3-b]pyridin-7-amine]
IC50 (PDE1A): 1.2 nM

Source: patent US10034861B2 (priority 2016, dated 2018)
